Consider 1 compound from US10525046B2 (ACADIA Pharmaceuticals Inc., priority 2003, dated 2020).

By UniProt entry, the sequences of proteins in these tests, tags left out.
UniProt P28223, whole entry: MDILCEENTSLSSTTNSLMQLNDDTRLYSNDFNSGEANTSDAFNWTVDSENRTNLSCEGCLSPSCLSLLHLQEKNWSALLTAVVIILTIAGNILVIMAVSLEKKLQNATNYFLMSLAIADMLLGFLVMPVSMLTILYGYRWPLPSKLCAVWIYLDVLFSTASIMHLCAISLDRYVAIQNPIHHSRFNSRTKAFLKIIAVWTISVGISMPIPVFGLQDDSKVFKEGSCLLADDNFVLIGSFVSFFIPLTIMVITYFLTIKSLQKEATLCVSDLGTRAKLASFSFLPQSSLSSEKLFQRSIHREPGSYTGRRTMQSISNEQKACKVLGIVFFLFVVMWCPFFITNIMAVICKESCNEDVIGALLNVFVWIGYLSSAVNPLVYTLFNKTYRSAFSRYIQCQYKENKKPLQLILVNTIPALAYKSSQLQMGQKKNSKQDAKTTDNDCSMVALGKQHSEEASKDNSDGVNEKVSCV

Each structure is given as a SMILES string. pEC50: −log10 of the molar value.

The target in the assay is human 5HT2A receptors (Homo sapiens, UniProt P28223). Kind of assay: cell-based.

Take `CCCN1CCC[C@@H]2Cc3n[nH]cc3C[C@H]21` [quinpirole]: the negative-log EC50 (pEC50) was 6.76.
